# From patent US8609678B2, “Reverse amide compounds as protein deacetylase inhibitors and methods of use thereof” (Acetylon Pharmaceuticals, priority 2010, dated 2013)
# By UniProt entry, the sequences of proteins in these tests, tags left out. Where a name states a change or a piece, a line headed by the entry shows the natural chain unless it says otherwise.
# UniProt O15379: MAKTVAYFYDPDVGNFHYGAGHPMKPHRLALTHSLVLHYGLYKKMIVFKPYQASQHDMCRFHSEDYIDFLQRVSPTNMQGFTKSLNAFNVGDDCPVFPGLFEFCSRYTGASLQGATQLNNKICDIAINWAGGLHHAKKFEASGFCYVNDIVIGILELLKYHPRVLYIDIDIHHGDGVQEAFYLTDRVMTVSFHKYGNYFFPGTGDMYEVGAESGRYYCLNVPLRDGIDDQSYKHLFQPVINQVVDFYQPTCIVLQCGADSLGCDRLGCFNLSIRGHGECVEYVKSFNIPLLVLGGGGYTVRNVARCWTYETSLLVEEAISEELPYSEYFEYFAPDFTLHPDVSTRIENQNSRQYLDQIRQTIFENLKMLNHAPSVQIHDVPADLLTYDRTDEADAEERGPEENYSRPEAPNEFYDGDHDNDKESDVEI
# UniProt Q9UBN7: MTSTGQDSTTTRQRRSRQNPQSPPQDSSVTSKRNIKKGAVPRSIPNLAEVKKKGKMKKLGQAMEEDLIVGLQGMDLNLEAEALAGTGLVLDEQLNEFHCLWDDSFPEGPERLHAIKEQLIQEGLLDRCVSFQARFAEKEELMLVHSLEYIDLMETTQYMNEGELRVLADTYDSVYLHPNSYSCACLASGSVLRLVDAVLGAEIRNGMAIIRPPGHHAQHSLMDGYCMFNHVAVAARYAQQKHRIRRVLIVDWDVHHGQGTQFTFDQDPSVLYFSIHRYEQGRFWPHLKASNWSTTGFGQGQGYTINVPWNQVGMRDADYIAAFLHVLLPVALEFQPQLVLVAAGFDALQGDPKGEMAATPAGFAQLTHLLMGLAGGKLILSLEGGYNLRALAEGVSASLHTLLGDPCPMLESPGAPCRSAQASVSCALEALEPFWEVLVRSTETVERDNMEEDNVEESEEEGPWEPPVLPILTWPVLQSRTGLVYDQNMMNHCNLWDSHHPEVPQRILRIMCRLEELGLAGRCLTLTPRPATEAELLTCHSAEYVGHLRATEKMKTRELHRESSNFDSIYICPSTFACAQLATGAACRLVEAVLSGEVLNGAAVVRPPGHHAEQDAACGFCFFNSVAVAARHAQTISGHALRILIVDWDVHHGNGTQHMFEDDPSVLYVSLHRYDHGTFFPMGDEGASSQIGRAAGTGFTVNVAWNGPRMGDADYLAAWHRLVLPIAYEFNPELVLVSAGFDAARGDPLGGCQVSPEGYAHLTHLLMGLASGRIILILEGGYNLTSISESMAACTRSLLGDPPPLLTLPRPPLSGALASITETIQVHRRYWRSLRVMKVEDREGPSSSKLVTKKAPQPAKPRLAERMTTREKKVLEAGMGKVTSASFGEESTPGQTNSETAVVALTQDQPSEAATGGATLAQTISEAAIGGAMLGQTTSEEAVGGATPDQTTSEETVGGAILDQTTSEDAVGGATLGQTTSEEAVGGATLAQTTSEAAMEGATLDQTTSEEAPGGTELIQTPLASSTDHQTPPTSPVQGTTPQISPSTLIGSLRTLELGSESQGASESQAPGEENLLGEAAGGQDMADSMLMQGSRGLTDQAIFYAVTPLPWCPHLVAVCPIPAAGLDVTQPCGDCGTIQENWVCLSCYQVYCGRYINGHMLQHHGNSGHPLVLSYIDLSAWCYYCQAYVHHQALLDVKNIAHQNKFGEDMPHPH
# pIC50: −log10 of the molar value.
# Target: HDAC3 (Homo sapiens (Human), UniProt O15379)
# Test: HDAC enzyme assay, HDAC3
# Format: biochemical
# Conditions: 0.08 ng/ml enzyme, 17 μM tripeptide substrate
row,IC50 [nM],Compound
1,153,"O=C(CCCCCCNC(=O)c1ccc(C2(c3ccccc3)OC(=O)c3ccccc32)cc1)NO (stereo not shown) [N-(7-(hydroxyamino)-7-oxoheptyl)-4-(3-oxo-1-phenyl-1,3-dihydroisobenzofuran-1-yl)benzamide]"
2,873,"COC(c1ccc(C(=O)N(C)CCCCCCC(=O)NO)cc1)(c1cc(F)cc(F)c1)c1cc(F)cc(F)c1 [4-(bis(3,5-difluorophenyl)(methoxy)methyl)-N-(7-(hydroxyamino)-7-oxoheptyl)-N-methylbenzamide]"
3,285,O=C(CCCCCCNC(=O)c1cccc(C(O)(c2ccccn2)c2ccccn2)c1)NO [N-(7-(hydroxyamino)-7-oxoheptyl)-3-(hydroxydipyridin-2-ylmethyl)benzamide]
4,361,COC(c1ccc(F)cc1)(c1ccc(C(=O)N(C)CCCCCCC(=O)NO)cc1)c1ccccn1 (stereo not shown) [4-((4-fluorophenyl)(methoxy)(pyridin-2-yl)methyl)-N-(7-(hydroxyamino)-7-oxoheptyl)-N-methylbenzamide]
5,74,O=C(CCCCCCNC(=O)c1ccc(C(O)(c2ccccc2F)c2ccccc2F)cc1)NO [4-(bis(2-fluorophenyl)(hydroxy)methyl)-N-(7-(hydroxyamino)-7-oxoheptyl)benzamide]
6,35,O=C(CCCCCCNC(=O)c1cnc(N(CCO)CCc2c[nH]c3ccccc23)nc1)NO [2-((2-(1H-indol-3-yl)ethyl)(2-hydroxyethyl)amino)-N-(7-(hydroxyamino)-7-oxoheptyl)pyrimidine-5-carboxamide]

# Target: HDAC6 (Homo sapiens (Human), UniProt Q9UBN7)
# Test: HDAC enzyme assay, HDAC6
# Conditions: not given
row,pIC50,Compound
1,7.41,CCN(c1ccc(C(=O)N(C)CCCCCCC(=O)NO)cc1)c1ccccc1C(F)(F)F [4-(ethyl(2-(trifluoromethyl)phenyl)amino)-N-(7-(hydroxyamino)-7-oxoheptyl)-N-methylbenzamide]

# Same assay, conditions: read-out: IC50(nM) HDAC6; 2 ng/ml enzyme, 14 μM tripeptide substrate
row,IC50 [nM],Compound
1,11,"O=C(CCCCCCNC(=O)c1ccc(C2(c3ccccc3)OC(=O)c3ccccc32)cc1)NO (stereo not shown) [N-(7-(hydroxyamino)-7-oxoheptyl)-4-(3-oxo-1-phenyl-1,3-dihydroisobenzofuran-1-yl)benzamide]"
2,17,"COC(c1ccc(C(=O)N(C)CCCCCCC(=O)NO)cc1)(c1cc(F)cc(F)c1)c1cc(F)cc(F)c1 [4-(bis(3,5-difluorophenyl)(methoxy)methyl)-N-(7-(hydroxyamino)-7-oxoheptyl)-N-methylbenzamide]"
3,41,O=C(CCCCCCNC(=O)c1cccc(C(O)(c2ccccn2)c2ccccn2)c1)NO [N-(7-(hydroxyamino)-7-oxoheptyl)-3-(hydroxydipyridin-2-ylmethyl)benzamide]
4,23,COC(c1ccc(F)cc1)(c1ccc(C(=O)N(C)CCCCCCC(=O)NO)cc1)c1ccccn1 (stereo not shown) [4-((4-fluorophenyl)(methoxy)(pyridin-2-yl)methyl)-N-(7-(hydroxyamino)-7-oxoheptyl)-N-methylbenzamide]
5,3,O=C(CCCCCCNC(=O)c1ccc(C(O)(c2ccccc2F)c2ccccc2F)cc1)NO [4-(bis(2-fluorophenyl)(hydroxy)methyl)-N-(7-(hydroxyamino)-7-oxoheptyl)benzamide]
6,10,"Cc1cccc(C)c1Nc1cccc(C(=O)NCCCCCCC(=O)NO)c1 [3-(2,6-dimethylphenylamino)-N-(7-(hydroxyamino)-7-oxoheptyl)benzamide]"
7,107,CN(CCCCCCC(=O)NO)C(=O)c1ccc(N(C)c2nc3ccccc3o2)cc1 [4-(benzo[d]oxazol-2-yl(methyl)amino)-N-(7-(hydroxyamino)-7-oxoheptyl)-N-methylbenzamide]
8,3,O=C(CCCCCCNC(=O)c1cnc(N(CCO)CCc2c[nH]c3ccccc23)nc1)NO [2-((2-(1H-indol-3-yl)ethyl)(2-hydroxyethyl)amino)-N-(7-(hydroxyamino)-7-oxoheptyl)pyrimidine-5-carboxamide]
9,7,O=C(CCCCCCNC(=O)c1cnc(N2CCC[C@@H](O)C2)nc1)NO [(R)-N-(7-(hydroxyamino)-7-oxoheptyl)-2-(3-hydroxypiperidin-1-yl)pyrimidine-5-carboxamide]
10,23,CN(CCCCCCC(=O)NO)C(=O)c1ccc(C(C)(O)c2ccc(F)cc2)cc1 (stereo not shown) [4-(1-(4-fluorophenyl)-1-hydroxyethyl)-N-(7-(hydroxyamino)-7-oxoheptyl)-N-methyl benzamide]
11,20,Cc1cccnc1N(c1ccccc1)c1ccc(C(=O)NCCCCCCC(=O)NO)cc1 [N-(7-(hydroxyamino)-7-oxoheptyl)-4-((3-methylpyridin-2-yl)(phenyl)amino) benzamide]
12,6,CCOC(c1ccc(C(=O)NCCCCCCC(=O)NO)cc1)(c1ccccn1)c1ccccn1 [4-(ethoxydipyridin-2-ylmethyl)-N-(7-(hydroxyamino)-7-oxoheptyl)benzamide]
13,47,COC(c1ccc(C(=O)N(C)CCCCCCC(=O)NO)cc1)(c1cccc(F)c1)c1cccc(F)c1 [4-(bis(3-fluorophenyl)(methoxy)methyl)-N-(7-(hydroxyamino)-7-oxoheptyl)-N-methyl benzamide]
14,20,"COC(c1ccc(C(=O)NCCCCCCC(=O)NO)cc1)(c1ccc(F)cc1F)c1ccc(F)cc1F [4-(bis(2,4-difluorophenyl)(methoxy)methyl)-N-(7-(hydroxyamino)-7-oxoheptyl)benzamide]"
15,36,CN(CCCCCCC(=O)NO)C(=O)c1ccc(C(C)(O)c2ccccn2)cc1 (stereo not shown) [4-(1-hydroxy-1-(pyridin-2-yl)ethyl)-N-(7-(hydroxyamino)-7-oxoheptyl)-N-methyl benzamide]
16,3,CC(=O)N(c1ccccc1)c1ccc(C(=O)NCCCCCCC(=O)NO)cc1 [N-(7-(hydroxyamino)-7-oxoheptyl)-4-(N-phenylacetamido)benzamide]
17,45,"CC(C)c1cccc(C(C)C)c1N(C)c1ccc(C(=O)NCCCCCCC(=O)NO)cc1 [4-((2,6-diisopropylphenyl)(methyl)amino)-N-(7-(hydroxyamino)-7-oxoheptyl)benzamide]"
18,24,"Cc1cccc(C)c1N(c1ccc(C(=O)N(C)CCCCCCC(=O)NO)cc1)c1ncccn1 [4-((2,6-dimethylphenyl)(pyrimidin-2-yl)amino)-N-(7-(hydroxyamino)-7-oxoheptyl)-N-methylbenzamide]"
19,4,"Cc1cccc(C)c1Nc1ccc(C(=O)NCCCCCCC(=O)NO)cc1F [4-(2,6-dimethylphenylamino)-3-fluoro-N-(7-(hydroxyamino)-7-oxoheptyl)benzamide]"
20,48,"Cc1cccc(C)c1Nc1ccccc1C(=O)N(C)CCCCCCC(=O)NO [2-(2,6-dimethylphenylamino)-N-(7-(hydroxyamino)-7-oxoheptyl)-N-methylbenzamide]"
21,8,"O=C(CCCCCCNC(=O)c1cnc(N(CCO)CC(c2ccc(F)cc2)c2ccc(F)cc2)nc1)NO [2-((2,2-bis(4-fluorophenyl)ethyl)(2-hydroxyethyl)amino)-N-(7-(hydroxyamino)-7-oxoheptyl)pyrimidine-5-carboxamide]"
22,11,CN(c1ccc(C(=O)NCCCCCCC(=O)NO)cc1)c1nc2ccccc2o1 [4-(benzo[d]oxazol-2-yl(methyl)amino)-N-(7-(hydroxyamino)-7-oxoheptyl)benzamide]
23,14,O=C(CCCCCCNC(=O)c1ccc(N(c2ccccc2)c2cnccn2)cc1)NO [N-(7-(hydroxyamino)-7-oxoheptyl)-4-(phenyl(pyrazin-2-yl)amino)benzamide]
24,3,"O=C(CCCCCCNC(=O)c1cnc(N2CCc3ccccc3C2)nc1)NO [2-(3,4-dihydroisoquinolin-2(1H)-yl)-N-(7-(hydroxyamino)-7-oxoheptyl)pyrimidine-5-carboxamide]"
25,15,O=C(CCCCCCNC(=O)c1ccc(N(c2ccccc2)S(=O)(=O)c2ccccc2)cc1)NO [N-(7-(hydroxyamino)-7-oxoheptyl)-4-(N-phenylphenylsulfonamido)benzamide]
26,18,CN(CCCCCCC(=O)NO)C(=O)c1ccc(C(O)(c2ccccc2)c2ccncc2)cc1 (stereo not shown) [4-(hydroxy(phenyl)(pyridin-4-yl)methyl)-N-(7-(hydroxyamino)-7-oxoheptyl)-N-methylbenzamide]
27,11,Cc1cccc(Cl)c1Nc1ccc(C(=O)N(C)CCCCCCC(=O)NO)cc1 [4-(2-chloro-6-methylphenylamino)-N-(7-(hydroxyamino)-7-oxoheptyl)-N-methylbenzamide]
28,3,O=C(CCCCCCNC(=O)c1ccc(C(O)(c2ccc(F)cc2)c2ccc(F)cc2)cc1)NO [4-(bis(4-fluorophenyl)(hydroxy)methyl)-N-(7-(hydroxyamino)-7-oxoheptyl)benzamide]
29,7,O=C(CCCCCCNC(=O)c1cnc(N2CCOC(CO)C2)nc1)NO (stereo not shown) [N-(7-(hydroxyamino)-7-oxoheptyl)-2-(2-(hydroxymethyl)morpholino)pyrimidine-5-carboxamide]
30,7,CC(C)c1ccccc1N(C)c1ncc(C(=O)NCCCCCCC(=O)NO)cn1 [N-(7-(hydroxyamino)-7-oxoheptyl)-2-((2-isopropylphenyl)(methyl)amino)pyrimidine-5-carboxamide]
